Target: MART-1 (MELAN-A) peptide on HLA-A*02:01 (human)
Test: activation reporter or marker

B1: Radium-1 TCR (TCR, V domains shown)
Valpha: GIQVEQSPPDLILQEGANSTLRCNFSDSVNNLQWFHQNPWGQLINLFYIPSGTKQNGRLSATTVATERYSLLYISSSQTTDSGVYFCAVNAGNMLTFGGGTRLMVKP
Vbeta: DVKVTQSSRYLVKRTGEKVFLECVQDMDHENMFWYRQDPGLGLRLIYFSYDVKMKEKGDIPEGYSVSREKKERFSLILESASTNQTSMYLCASSSGVTGELFFGEGSRLTVL
Q: Does B1 bind?
A: no recognition

Source: patent US20200308279A1 (published 2020)
